ChEMBL document CHEMBL5634090, “Design of phenothiazine-based cationic amphiphilic derivatives incorporating arginine residues: Potential membrane-active broad-spectrum antimicrobials combating pathogenic bacteria in vitro and in vivo” (Eur J Med Chem, 2023)

System: Pseudomonas aeruginosa
Assay: Antibacterial activity against Pseudomonas aeruginosa ATCC 9027 by microbroth dilution assay
Type: functional

Compound `CC[C@H](C)[C@H](NC(=O)CN)C(=O)NCC(=O)N[C@@H](C)C(=O)N[C@H](C(=O)N[C@@H](CC(C)C)C(=O)N[C@@H](CCCCN)C(=O)N[C@H](C(=O)N[C@@H](CC(C)C)C(=O)N[C@H](C(=O)N[C@H](C(=O)NCC(=O)N[C@@H](CC(C)C)C(=O)N1CCC[C@H]1C(=O)N[C@@H](C)C(=O)N[C@@H](CC(C)C)C(=O)N[C@H](C(=O)N[C@@H](CO)C(=O)N[C@@H](Cc1c[nH]c2ccccc12)C(=O)N[C@H](C(=O)N[C@@H](CCCCN)C(=O)N[C@@H](CCCNC(=N)N)C(=O)N[C@@H](CCCCN)C(=O)N[C@@H](CCCNC(=N)N)C(=O)N[C@@H](CCC(N)=O)C(=O)N[C@@H](CCC(N)=O)C(N)=O)[C@@H](C)CC)[C@@H](C)CC)[C@@H](C)O)[C@@H](C)O)C(C)C)C(C)C` [MELITTIN] has an MIC of 3.12 µg/mL (≈ 1.1 µM).

Values after ≈ are worked out from the molar mass of the structure shown.
